# Reference: ChEMBL document CHEMBL3639108, “5,6,7,8,9,10-hexahydro-6,10-epimino[1,2,4]triazolo[4,3-a]azocines as P2X7 modulators” (2015)
# Amino acid sequences for entries named in this document (tags omitted). A change or cut given only in a name is not applied to a line headed by its entry.
# UniProt Q99572: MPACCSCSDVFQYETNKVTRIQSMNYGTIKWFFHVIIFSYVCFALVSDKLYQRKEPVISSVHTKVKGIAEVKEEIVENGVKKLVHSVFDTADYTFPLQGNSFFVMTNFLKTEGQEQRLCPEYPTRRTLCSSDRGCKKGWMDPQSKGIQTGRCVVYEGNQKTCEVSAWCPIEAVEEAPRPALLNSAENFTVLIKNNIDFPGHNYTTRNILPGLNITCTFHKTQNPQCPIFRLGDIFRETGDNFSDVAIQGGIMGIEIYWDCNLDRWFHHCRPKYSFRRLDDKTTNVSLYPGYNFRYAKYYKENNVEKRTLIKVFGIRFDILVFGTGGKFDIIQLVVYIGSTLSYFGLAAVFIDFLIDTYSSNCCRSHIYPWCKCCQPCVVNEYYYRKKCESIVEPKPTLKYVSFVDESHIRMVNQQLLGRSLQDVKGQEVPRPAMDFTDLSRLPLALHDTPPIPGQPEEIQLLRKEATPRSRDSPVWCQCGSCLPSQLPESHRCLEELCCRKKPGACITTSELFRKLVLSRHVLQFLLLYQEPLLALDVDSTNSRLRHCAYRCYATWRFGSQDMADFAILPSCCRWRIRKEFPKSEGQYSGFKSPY
# Key:
# [1] = biological target: T1, P2X purinoceptor 7 (Homo sapiens, UniProt Q99572); test: FLIPR Assay: Ca^2+flux: 1321N1 cells expressing the recombinant human, rat or mouse P2X7 channel was cultured in HyQ DME/(HyClone/Dulbecco's Modified Eagle Medium) high glucose supplemented with 10% Fetal Bovine Serum (FBS) and appropriate selection marker. Cells were seeded at a density of 25000 cells/well (96-well clear bottom black walled plates) in 100 µl volume/well. On the day of the experiment, cell plates were washed with assay buffer, containing (in mM): 130 NaCl, 2 KCl, 1 CaCl2, 1 MgCl2, 10 HEPES, 5 glucose; pH 7.40 and 300 mOs. After the wash, cells were loaded with the Calcium-4 dye (Molecular Device) and incubated in the dark for 60 minutes. Test compounds were prepared at 250× the test concentration in neat DMSO. Intermediate 96-well compound plates were prepared by transferring 1.2 µL of the compound into 300 µL of assay buffer. A further 3× dilution occurred when transferring 50 µL/well of the compound plate to 100 µL/well in the cell plate.; assay type: cell-based
# [2] = biological target: T1, P2X purinoceptor 7; test: Radioligand Binding: Human or rat P2X7-1321N1 cells were collected and frozen @-80° C. On the day of the experiment, cell membrane preparations were made according to standard published methods. The total assay volume was 100 µl:10 µl compound (10×)+(b) 40 µl tracer (2.5×)+50 µl membrane (2×). The tracer used for the assay was tritiated A-804598. The compound can be prepared as described in the literature. […] C. The assay was terminated by filtration (GF/B filters pre-soaked with 0.3% PEI) and washed with washing buffer (Tris-HCl 50 mM).; assay type: cell-based
structure (smiles),measurement,setting,value
COc1ccc(-c2nnc3n2C[C@@H]2CCC[C@H]3N2C(=O)c2cccc(C(F)(F)F)c2Cl)nc1,IC50,[1],10 nM
same,Ki,[2],30.4 nM
